From patent US11278522B2, “Use of methadone metabolites for treatment of anxiety and depression” (Georgetown University, priority 2015, dated 2022)

Chains of the proteins cited; added tags and fusions are not shown. Residues count along the entry.
UniProt P30926, 22-498: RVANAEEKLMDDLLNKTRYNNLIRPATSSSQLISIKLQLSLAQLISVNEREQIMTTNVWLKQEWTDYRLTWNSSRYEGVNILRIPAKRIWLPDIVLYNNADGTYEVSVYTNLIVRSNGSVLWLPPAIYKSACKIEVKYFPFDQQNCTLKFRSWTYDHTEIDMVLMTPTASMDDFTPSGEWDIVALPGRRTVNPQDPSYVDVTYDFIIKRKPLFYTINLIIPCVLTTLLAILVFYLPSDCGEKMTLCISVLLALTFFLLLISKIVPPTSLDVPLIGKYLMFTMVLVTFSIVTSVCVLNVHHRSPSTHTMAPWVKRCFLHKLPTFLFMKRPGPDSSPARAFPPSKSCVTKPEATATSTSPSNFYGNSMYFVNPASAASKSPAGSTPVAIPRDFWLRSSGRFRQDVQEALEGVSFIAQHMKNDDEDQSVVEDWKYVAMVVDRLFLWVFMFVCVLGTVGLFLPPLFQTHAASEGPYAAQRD
UniProt P32297, 32-505: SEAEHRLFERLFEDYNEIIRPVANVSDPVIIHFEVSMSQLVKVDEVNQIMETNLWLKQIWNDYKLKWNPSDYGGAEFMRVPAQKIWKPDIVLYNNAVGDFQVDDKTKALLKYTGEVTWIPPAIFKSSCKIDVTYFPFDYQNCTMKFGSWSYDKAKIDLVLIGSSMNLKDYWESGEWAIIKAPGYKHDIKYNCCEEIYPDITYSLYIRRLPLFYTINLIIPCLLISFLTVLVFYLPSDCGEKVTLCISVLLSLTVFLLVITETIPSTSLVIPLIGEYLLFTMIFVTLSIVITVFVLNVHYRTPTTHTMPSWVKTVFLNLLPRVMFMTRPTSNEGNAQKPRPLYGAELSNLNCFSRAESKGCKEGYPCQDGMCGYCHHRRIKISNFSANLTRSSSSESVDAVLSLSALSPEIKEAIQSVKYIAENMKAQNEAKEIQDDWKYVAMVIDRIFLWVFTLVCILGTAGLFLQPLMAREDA

Target: T1, human α3β4 nAChRs (Homo sapiens, UniProt P30926+P32297)
T1 construct: expressed in transfected cells
Test: 86Rb+ efflux assay, inhibition of nicotine-stimulated efflux, α3β4 nAChRs
Type: cell-based
Conditions: 86Rb+ efflux stimulated by 100 μM nicotine; HEK cells YXα3β4H1; mean ± standard error
Experimental: Stable cell lines and ^86Rb^+ efflux Assay. The cell lines expressing human α4β2 (YXα4β2H1) and α3β4 (YXα3β4H1) nAChRs were established recently (Xiao el al., 2012). These cell lines were maintained in minimum essential medium (MEM) supplemented with 10% fetal bovine serum, 100 units/mL penicillin G, […] streptomycin and selective antibiotics at 37° C. with 5% CO2 in a humidified incubator. Tissue culture medium and antibiotics were obtained from Invitrogen Corporation (Carlsbad, Calif.), unless otherwise stated. Fetal bovine serum was obtained from Gemini Bio-Products (Woodland, Calif.).
Functional properties of compounds at nAChRs expressed in the transfected cells were measured using ^86Rb^+ efflux assays as described previously (Xiao et al., 1998, 2001). In brief, cells were plated into 24-well plates coated with poly-D-lysine. The plated cells were grown at 37° C. for 18 to 24 hour to reach 85-95% confluence. […] Radioactivity of assay samples and lysates was measured by liquid scintillation counting. Total loading (cpm) was calculated as the sum of the assay sample and the lysate of each well, and the amount of ^86Rb^+ efflux was expressed as a percentage of ^86Rb^+ loaded. […] IC50 values were determined by nonlinear least-squares regression analyses (GraphPad. San Diego, Calif.).

CNC1(C)C2CCC(C2)C1(C)C (stereo not shown) [Mecamylamine, Mecamylamine HCl, reference compound]
IC50: 3.7 ± 1.2 µM

Structures can show the parent of a compound that is named as a salt.
